Assay results published in article PMC9727182, “Identification of pharmacokinetic markers for safflower injection using a combination of system pharmacology, multicomponent pharmacokinetics, and quantitative proteomics study” (Frontiers in Pharmacology, 2022).
Where “and” joins values, the source holds several entries; their conditions need not be identical. Equal values may be shown once.

Columns and labels:
[1] = Multicomponent pharmacokinetics in rat plasma after i.v. safflower injection (SI); details: for AUC0-t / AUC0-∞ / Cl / Cmax / MRT0-t / MRT0-∞ / Vd / t 1/2: rat plasma, i.v. SI
Method: The animal experiments were approved by the Animal Care and Use Committee of the College of Animal Science (College of Bee Science), Fujian Agriculture and Forestry University (Approval Number: PZCASFAFU21012). 250 ± 20 g of male Sprague-Dawley (SD) rats were provided by Lab Animal Center in Fujian Medical University (Fuzhou, China).
Ten rats were divided into three groups (Low dose group, n = 4; medium and high groups, n = 3, respectively). […] For each rat, 2 ml of physiological saline was supplemented after 30 min sampling via intraperitoneal injection. The plasma samples were obtained by centrifugation at 3,000 rpm for 10 min and stored at −20°C until analysis.
Clear supernatant (5 μl) was injected into HPLC-MS for bioanalysis.
The sample was separated on a RD-C18 column (4.6 mm × 50 mm, 3.5 μm, Zhongpu Develop, China). The mobile phase incudes water with 0.1% acetic acid (A) and acetonitrile (B). […] The column temperature, flow rate and injection volume were set at 30°C, 0.5 ml/min and 5 μl, respectively.
Non-compartmental model was used to calculate the PK parameters by DAS 3.0 software (Chinese Pharmacologic Society, Beijing, China). A single-tailed t-test was carried out in the study.

[2] = Stability in diluted SI at room temperature; details: analyzed at 0, 2, 4, 8, 12, 24, and 48 h
[3] = Stability of 6 compounds of SI in rat plasma; details: for 10h in auto-sampler vials RE: extracted rat plasma; for 6h at room temperature RE / Freeze-thaw stability (three cycles) RE / Long-term stability (-80℃,15 days) RE: rat plasma
From the text: The LC-MS method was validated by linearity, limits of detection (LOD), limits of quantification (LOQ), precision, accuracy, extraction recovery, matrix effect and stability of the 6 ingredients in rat plasma. Calibration curves were plotted using weighted linear regression of the peak area ratio of analyte to the IS against the corresponding nominal concentration of the analyte. LOD and LOQ were defined as the detectable concentration at which the ratio of signal to noise was more than 3 and 10, respectively. Intra- and inter-day accuracy and precision were assessed by detecting quality control (QC) samples using five replicates of rat samples at three concentration levels on one or three validation days, respectively. Accuracy and precision were expressed by relative error (RE) and relative standard deviation (RSD), respectively. The extraction recovery and matrix effect of the 6 components at above-mentioned three concentration levels were determined. Stability was assessed under the condition of placing un-treated plasma samples at room temperature for 6 h, and extracted plasma samples in auto-sampler for 10 h, as well as placing plasma samples within freeze-thaw three cycles and at −80 °C for 15 days.

[4] = High dose (4 ml/kg), n = 3, Mean ± SD
[5] = Low dose (1 ml/kg), n = 4, Mean ± SD
[6] = Medium dose (2 ml/kg), n = 3, Mean ± SD

detection in rat plasma ([1]; 1 h after administration (2 ml/kg of SI), preliminary test): can be detected
AUC0-t [1, 4]: 11,015.37 ± 1,025.71 h·ng/ml
AUC0-∞ [1, 4]: 11,453.34 ± 668.38 h·ng/ml
Cl [1, 4]: 1.5 ± 0.17 mL/min/kg
Cmax [1, 4]: 14,077.33 ± 17.21 ng/ml
MRT0-t [1, 4]: 42 ± 5.4 min
MRT0-∞ [1, 4]: 46.8 ± 6.6 min
Vd [1, 4]: 0.06 ± 0.02 L/kg
t 1/2 [1, 4]: 27.6 ± 7.2 min
AUC0-t [1, 5]: 2,479.11 ± 1,312.76 h·ng/ml
AUC0-∞ [1, 5]: 2,490.30 ± 1,317.76 h·ng/ml
Cl [1, 5]: 2.17 ± 1.2 mL/min/kg
Cmax [1, 5]: 2,624.50 ± 660.17 ng/ml
MRT0-t [1, 5]: 45.6 ± 11.4 min
MRT0-∞ [1, 5]: 46.8 ± 11.4 min
Vd [1, 5]: 0.09 ± 0.04 L/kg
t 1/2 [1, 5]: 28.2 ± 4.2 min
AUC0-t [1, 6]: 5,074.18 ± 328.93 h·ng/ml
AUC0-∞ [1, 6]: 5,461.77 ± 202.42 h·ng/ml
Cl [1, 6]: 1.67 ± 0 mL/min/kg
Cmax [1, 6]: 5,628.33 ± 405.14 ng/ml
MRT0-t [1, 6]: 47.4 ± 8.4 min
MRT0-∞ [1, 6]: 58.2 ± 3.6 min
Vd [1, 6]: 0.09 ± 0.01 L/kg
t 1/2 [1, 6]: 38.4 ± 4.8 min
detected mean maximum plasma concentration ([1]; rats, after administration of 4 ml/kg of SI): 14.07 μg/mL and 23 μM
Stability RSD [2]: 2.56%
10h in auto-sampler vials RE ([3]; spiked 40 ng/mL): -13.75%
10h in auto-sampler vials RE ([3]; spiked 400 ng/mL): 1.00%
10h in auto-sampler vials RE ([3]; spiked 10000 ng/mL): 0.06%
6h at room temperature RE ([3]; spiked 40 ng/mL): -10.50%
Freeze-thaw stability (three cycles) RE ([3]; spiked 40 ng/mL): 2.50%
Long-term stability (-80℃,15 days) RE ([3]; spiked 40 ng/mL): 3.00%
6h at room temperature RE ([3]; spiked 400 ng/mL): 4.80%
Freeze-thaw stability (three cycles) RE ([3]; spiked 400 ng/mL): 3.30%
Long-term stability (-80℃,15 days) RE ([3]; spiked 400 ng/mL): 0.80%
6h at room temperature RE ([3]; spiked 10000 ng/mL): -4.43%
Freeze-thaw stability (three cycles) RE ([3]; spiked 10000 ng/mL): 4.92%
Long-term stability (-80℃,15 days) RE ([3]; spiked 10000 ng/mL): -3.85%
Substance: hydroxysafflor yellow A [HSYA]
